Measurements reported in patent publication US10766882B2, “1,2-naphthoquinone based derivative and method of preparing the same” (YUNGJIN PHARM. CO., LTD., priority 2013, dated 2020).

By UniProt entry, the sequences of proteins in these tests, tags left out.
UniProt P15559, whole entry, species assumed: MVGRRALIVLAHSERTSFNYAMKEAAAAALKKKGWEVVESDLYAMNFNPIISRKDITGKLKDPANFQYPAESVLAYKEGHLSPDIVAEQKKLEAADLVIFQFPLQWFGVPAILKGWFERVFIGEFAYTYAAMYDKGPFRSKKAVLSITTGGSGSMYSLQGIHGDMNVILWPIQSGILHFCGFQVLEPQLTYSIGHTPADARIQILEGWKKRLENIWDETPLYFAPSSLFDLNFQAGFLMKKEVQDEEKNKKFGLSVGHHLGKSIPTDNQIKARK

Target: NQO1 protein (Homo sapiens, UniProt P15559)
Assay: NQO1 activity measurement (cytochrome C reduction)
Type: biochemical
Conditions: 5 ng NQO1 protein, 200 μM NADH, 77 μM cytochrome C, 37° C., absorbance 550 nm for 10 minutes
Method: An enzyme reaction solution included 25 mM Tris/HCl (pH 7.4), 0.14% bovine serum albumin, 200 μM NADH, 77 μM cytochrome C, and 5 ng of NQO1 protein. Enzymatic reaction was initiated by adding NADH and performed at 37° C. In this regard, a reaction rate was measured by observing absorbance, which was increased due to reduction of cytochrome C, at 550 nm for 10 minutes and NQO1 activity was represented as an amount of reduced cytochrome C [nmol cytochrome C reduced/min/μg protein].
Extinction coefficient for cytochrome C:21.1 mmol/L/cm=21.1 μmol/ml/cm

| Structure (SMILES) | NQO1 activity (5 μM, [nmol cytochrome C reduced/min/μg protein]) |
| --- | --- |
| CC(C)c1nc2c(n1CCCCl)C(=O)C(=O)c1ccccc1-2 [Example 55, 3-(3-chloropropyl)-2-isopropyl-3H-naphtho[2,1-d]imidazole-4,5-dione] | 139.8 nmol cytochrome C reduced/min/μg protein |
| CC(C)c1nc2c(n1CCCN(C)C)C(=O)C(=O)c1ccccc1-2 [Example 56, 3-(3-(dimethylamino)propyl)-2-isopropyl-3H-naphtho[2,1-d]imidazole-4,5-dione] | 24.6 nmol cytochrome C reduced/min/μg protein |
| CC(C)c1nc2c(n1CCCN1CCCC1)C(=O)C(=O)c1ccccc1-2 [Example 57, 2-isopropyl-3-(3-(pyrrolidin-1-yl)propyl)-3H-naphtho[2,1-d]imidazole-4,5-dione] | 75.7 nmol cytochrome C reduced/min/μg protein |
| CC(C)c1nc2c(n1CCCN1CCOCC1)C(=O)C(=O)c1ccccc1-2 [Example 58, 2-isopropyl-3-(3-morpholinopropyl)-3H-naphtho[2,1-d]imidazole-4,5-dione] | 53.4 nmol cytochrome C reduced/min/μg protein |
